# Patent publication US9656996B2, “Fused heterocyclic compound, preparation method therefor, pharmaceutical composition, and uses thereof” (SHANGHAI YINGLI PHARMACEUTICAL CO., LTD., priority 2013, dated 2017)
# Protein sequences, listed by entry. Tags and fused reporters are not part of them. Lines headed by an entry give the natural chain unless they say otherwise; changes in a name come on top.
# UniProt O00329, whole entry: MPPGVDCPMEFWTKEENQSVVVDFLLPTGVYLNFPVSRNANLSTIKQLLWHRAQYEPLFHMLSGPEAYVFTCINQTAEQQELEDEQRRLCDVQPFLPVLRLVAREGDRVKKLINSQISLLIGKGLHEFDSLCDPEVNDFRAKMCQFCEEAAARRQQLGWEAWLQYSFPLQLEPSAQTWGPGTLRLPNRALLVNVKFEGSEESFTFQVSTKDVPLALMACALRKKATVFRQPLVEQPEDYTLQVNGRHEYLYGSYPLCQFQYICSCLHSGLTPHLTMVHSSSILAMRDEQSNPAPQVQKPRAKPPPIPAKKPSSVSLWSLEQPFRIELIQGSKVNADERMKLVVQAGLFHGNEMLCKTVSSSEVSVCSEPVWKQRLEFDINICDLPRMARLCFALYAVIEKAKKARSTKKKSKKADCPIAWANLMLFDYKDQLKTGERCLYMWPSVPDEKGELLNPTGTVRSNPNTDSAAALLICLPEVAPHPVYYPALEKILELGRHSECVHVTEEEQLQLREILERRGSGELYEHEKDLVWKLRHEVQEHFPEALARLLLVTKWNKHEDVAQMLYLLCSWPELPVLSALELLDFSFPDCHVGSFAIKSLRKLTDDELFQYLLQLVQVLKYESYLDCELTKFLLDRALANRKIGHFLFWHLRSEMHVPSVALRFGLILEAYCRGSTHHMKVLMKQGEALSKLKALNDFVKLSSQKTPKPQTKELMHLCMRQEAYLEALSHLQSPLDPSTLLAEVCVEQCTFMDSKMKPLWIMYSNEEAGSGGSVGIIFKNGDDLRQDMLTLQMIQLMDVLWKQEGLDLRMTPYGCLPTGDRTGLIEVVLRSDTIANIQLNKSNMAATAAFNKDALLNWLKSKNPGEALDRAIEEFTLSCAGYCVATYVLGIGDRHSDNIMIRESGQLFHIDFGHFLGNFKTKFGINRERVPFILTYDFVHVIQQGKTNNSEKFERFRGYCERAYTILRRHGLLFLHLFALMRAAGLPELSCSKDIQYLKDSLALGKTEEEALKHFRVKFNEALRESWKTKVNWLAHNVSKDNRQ
# UniProt P42336, whole entry: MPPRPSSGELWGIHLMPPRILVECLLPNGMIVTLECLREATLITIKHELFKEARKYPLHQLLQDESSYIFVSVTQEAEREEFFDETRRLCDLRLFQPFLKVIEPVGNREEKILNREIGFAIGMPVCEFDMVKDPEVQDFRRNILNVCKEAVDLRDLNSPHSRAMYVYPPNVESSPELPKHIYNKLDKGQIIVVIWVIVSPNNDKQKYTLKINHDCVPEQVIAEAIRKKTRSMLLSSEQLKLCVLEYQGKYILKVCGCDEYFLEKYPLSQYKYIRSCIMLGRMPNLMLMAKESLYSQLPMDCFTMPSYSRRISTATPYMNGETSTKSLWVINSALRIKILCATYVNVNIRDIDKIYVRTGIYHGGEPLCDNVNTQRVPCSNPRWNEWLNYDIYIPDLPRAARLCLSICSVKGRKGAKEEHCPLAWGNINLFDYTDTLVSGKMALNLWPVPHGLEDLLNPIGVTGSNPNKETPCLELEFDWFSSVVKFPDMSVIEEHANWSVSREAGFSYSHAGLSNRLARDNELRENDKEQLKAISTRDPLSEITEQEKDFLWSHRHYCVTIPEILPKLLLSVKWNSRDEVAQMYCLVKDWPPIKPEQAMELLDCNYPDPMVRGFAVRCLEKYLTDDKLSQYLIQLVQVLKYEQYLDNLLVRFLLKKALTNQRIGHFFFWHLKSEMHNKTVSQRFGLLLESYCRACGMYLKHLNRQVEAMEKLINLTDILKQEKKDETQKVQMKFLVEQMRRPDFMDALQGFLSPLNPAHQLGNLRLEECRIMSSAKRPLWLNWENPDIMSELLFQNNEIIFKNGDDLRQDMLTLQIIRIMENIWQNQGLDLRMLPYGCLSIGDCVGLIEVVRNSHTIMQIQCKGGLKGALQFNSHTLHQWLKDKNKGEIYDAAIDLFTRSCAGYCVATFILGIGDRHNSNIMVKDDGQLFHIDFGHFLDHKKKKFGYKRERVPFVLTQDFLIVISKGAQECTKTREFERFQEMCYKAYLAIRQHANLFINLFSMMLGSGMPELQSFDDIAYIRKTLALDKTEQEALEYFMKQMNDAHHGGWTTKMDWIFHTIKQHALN
# UniProt P27986, whole entry partner: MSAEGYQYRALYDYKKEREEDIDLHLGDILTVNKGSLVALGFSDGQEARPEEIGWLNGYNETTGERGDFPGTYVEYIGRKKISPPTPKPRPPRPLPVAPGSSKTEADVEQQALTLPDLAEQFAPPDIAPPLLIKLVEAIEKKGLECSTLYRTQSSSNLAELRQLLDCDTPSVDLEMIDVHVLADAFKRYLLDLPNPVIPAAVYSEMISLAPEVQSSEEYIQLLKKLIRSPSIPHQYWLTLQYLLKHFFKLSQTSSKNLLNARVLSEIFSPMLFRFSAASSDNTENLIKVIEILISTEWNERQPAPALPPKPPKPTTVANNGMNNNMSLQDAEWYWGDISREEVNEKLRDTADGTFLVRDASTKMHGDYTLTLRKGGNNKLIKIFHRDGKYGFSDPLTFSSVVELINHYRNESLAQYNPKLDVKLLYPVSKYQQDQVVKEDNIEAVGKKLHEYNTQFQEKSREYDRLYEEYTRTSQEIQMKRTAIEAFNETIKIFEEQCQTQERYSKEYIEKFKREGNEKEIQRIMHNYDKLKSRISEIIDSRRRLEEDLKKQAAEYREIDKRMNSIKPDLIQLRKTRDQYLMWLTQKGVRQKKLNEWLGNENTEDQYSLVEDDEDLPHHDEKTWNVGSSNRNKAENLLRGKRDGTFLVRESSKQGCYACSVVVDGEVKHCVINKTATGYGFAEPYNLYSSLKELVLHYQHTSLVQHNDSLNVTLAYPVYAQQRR
# Legend:
# PI3Kδ = PI3Kδ (Homo sapiens (Human), UniProt O00329); experiment: PI3Kδ enzymatic inhibitory activity IC50 assay; conditions: read-out: PI3Kδ IC50; luminescence readout, 25 μM ATP, 50 μM PIP2, 2 hours at room temperature
# Procedure: (§1) 1. Buffer preparation: 50 mM HEPES, pH 7.5, 3 mM MgCl2, 1 mM EGTA, 100 mM NaCl, 0.03% CHAPS.
# (§2) 2. The compound was formulated in 100% DMSO in a concentration gradient, and deposited to a 384-well plate with a final DMSO concentration of 1%.
# (§3) 3. PI3Kα, PI3Kδ, PI3Kβ and PI3Kγ enzymes (purchased from EMD Millipore) were diluted to the optimal concentration with the following buffer: 50 mM HEPES, pH 7.5, 3 mM MgCl2, 1 mM EGTA, 100 mM NaCl, 0.03% CHAPS, 2 mM DTT, transferred to a 384-well plate and incubated with the compound for a certain time.
# (§4) 4. The substrate was diluted to an optimal concentration with the following buffer: 50 mM HEPES, pH 7.5, 3 mM MgCl2, 1 mM EGTA, 100 mM NaCl, 0.03% CHAPS, 2 mM DTT, 50 μM PIP2, 25 μM ATP and added to the 384-well plate to initiate the reaction. PI3Kα, PI3Kβ and PI3Kγ were allowed to react for 1 h at room temperature, and PI3Kδ reacted for 2 hours at room temperature. Another 10 μL ADP-Glo Detection Reagent also needed to be added for PI3Kβ and PI3Kγ, and then equilibrated at room temperature for 30 minutes.
# (§5) 5. Luminescence was read by using Flexstation, and the inhibition rate was calculated as the average value of two tests.
# PI3Kα = PI3Kα (Homo sapiens (Human), UniProt P42336); experiment: PI3Kα enzymatic inhibitory activity IC50 assay; conditions: selectivity ratio
# Procedure: as §1, §2, §3, §4, §5
SMILES,IC50 (PI3Kδ) [nM],α/δ (ratio of IC50 values against PI3Kα to PI3Kδ) (PI3Kα)
COc1ncc(-c2nc(N3CCOCC3)nc3c(CN4CCC(N5CCCC5=O)CC4)cc(F)cc23)cc1NS(C)(=O)=O,28,28
CC(C)(O)C1CCN(Cc2cnc3c(-c4cccc5[nH]ccc45)nc(N4CCOCC4)cn23)CC1,241,>41
